Values of other authors in US20150216993A1 (priority 2012, published 2015).

Tested on: organophosphate poisoning
Details: due to rapid clearance from the body

C[n+]1ccccc1/C=N/O
window of time in which the therapeutic is effective: about 10 minutes
